## AlphaSeq binding of Ab-95 light chain variants to a spike HR2 peptide

Antigen: PDVDLGDISGINAS, a 14-residue peptide of the SARS-CoV-2 spike HR2 region.

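The parent was found by panning a naive human phage display library on the peptide. The library (AAYL52) carries one to three amino acid substitutions per variant, with no insertions or deletions. AlphaSeq pools MATa yeast showing the antibodies with MATalpha yeast showing the peptide. Binding brings cells together so that they mate, and sequencing counts the barcode pairs among the diploids. Scores were corrected for input abundance and mapped to Kd with protein pairs of known affinity run in the same pool. Mating was done three times.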

The variants keep the heavy chain, the linker and the frameworks of Ab-95 (scFv order VH, a 15-residue (Gly4Ser)3 linker, VL).
VH: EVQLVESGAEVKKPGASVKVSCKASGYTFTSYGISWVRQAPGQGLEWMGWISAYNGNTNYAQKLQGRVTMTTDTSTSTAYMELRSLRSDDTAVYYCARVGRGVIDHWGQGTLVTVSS
VL: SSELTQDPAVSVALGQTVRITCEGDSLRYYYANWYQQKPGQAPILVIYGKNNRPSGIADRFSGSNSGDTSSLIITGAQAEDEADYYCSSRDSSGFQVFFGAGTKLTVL

Each variant is given by its three light chain CDRs, as the data file delimits them; those of the parent are EGDSLRYYYAN, GKNNRPS, SSRDSSGFQVF.
Every variant below is changed at Q96 of the VL (sequential numbering).
Each Kd is an estimate from the mating assay, the geometric mean of the replicates in which the pair was seen; lower is stronger.
Where no diploid with the target was found in any replicate, the entry reads "nd": below detection, most likely a poor binder, though not proof of it.

CDR-L1,CDR-L2,CDR-L3,apparent Kd,replicates with signal
ESDSLRYYYAV,GKNNRPS,SSRDSSGFFVF,13 µM,1/3
EGDSLRYYYAN,GKNNRGS,SSRDISGFWVF,2.3 µM,3/3
EQDSLRYYYAN,VKNNRPS,SSRDSSGFHVF,520 µM,1/3
EGDSLRNYYAN,GKNNRPS,SCRDSSGFMVF,14 µM,3/3
EGDSLRYYCAK,GKNNRPS,SSRDSSGFGVF,nd,0/3
EGDSLRYYYAN,GKNNRPS,SSRDSSGFAVF,370 nM,3/3
EGDSLRPYYAN,GKNNRPS,SSGDSSGFVVF,92 µM,2/3
EGDSLRWYYAN,GENNRPS,SSRDSSGFIVF,2.0 µM,3/3
EGDSLRYYYAN,GKNNRPS,SSRDSSGFTVF,220 nM,3/3
GGDSLRYYAAN,GKNNRPS,SSRDSSGFGVF,130 nM,3/3
EGLSLRYYYAN,GKNNTPS,SSRDSSGFKVF,4.7 µM,2/3
EGDSLRYYYAN,GKNNRSS,SHRDSSGFCVF,580 nM,3/3
EGDSWRYYNAN,GKNNRPS,SSRDSSGFHVF,800 nM,3/3
EGDSLRYEYAN,GKNNRPS,SSRVSSGFRVF,660 nM,3/3
EEDSLRYYYAN,GKNNRPS,SSRDSSPFFVF,9.5 µM,2/3
EGDSLRYYYAN,GKNNRPL,SSRDSSGFTVF,180 nM,3/3
EGDSLDYYYAN,GKNNRPS,SSRDSSGFEVT,3.4 µM,2/3
EGDSLRYYYAN,GKNNRPS,SSRDSSGREVE,580 nM,3/3
EGDSLRYYYAN,GKNERPS,SSRDSLGFGVF,180 nM,3/3
EGDSLRYYYAN,GDNNRPS,SPRDSSGFSVF,130 nM,3/3
EGDSLRYYYVN,GKNNRPS,SSEDSSGFGVF,4.2 µM,3/3
EGDFLRYYYAN,GINNRPS,SSRDSSGFAVF,37 µM,2/3
EGDSLFHYYAN,GKNNRPS,SSRDSSGFEVF,5.5 µM,2/3
EGDSLRYYYSE,GKNNRPS,SSRDSSGFPVF,7.5 µM,1/3
EGDSLRYYYIN,GKNNRCS,SSRDSSGFHVF,nd,0/3
EGDSSQYYYAN,GKNNRPS,SSRDSSGFLVF,2.0 µM,3/3
EGDSLRYYYAN,GKNNRCS,SSRDFSGFMVF,15 µM,2/3
ETDSLIYYYAN,GKNNRPS,SSRDSSGFWVF,430 µM,1/3
EGDSLPYYYAN,GKNNRPS,SSRDHSGFPVF,2.0 µM,3/3
WGDSPRYYYAN,GKNNRPS,SSRDSSGFMVF,44 µM,3/3
EGDSLRYYYAN,GKHNRPL,SSRDSSGFCVF,23 µM,3/3
EGDSLRYYYAN,GDNNRPH,SSRDSSGFTVF,250 nM,3/3
EGDSLRYYYNN,GKNNRPS,SSRDSSGFCVF,2.7 µM,3/3
EGDSLRYYHAN,GKNNRFS,SSRDSSGFSVF,900 nM,3/3
EGGSLRYYYAN,GKNNRPS,SSFDSSGFAVF,730 nM,2/3
EGHSLRYYYAN,GKNNRGS,SSRDSSGFYVF,150 µM,1/3
EGDSLRYYYAN,GKNNRPS,SVRTSSGFSVF,810 nM,3/3
EGDSLRYYYAN,GRNNRPS,SSRDSSGPLVF,320 nM,3/3
EGDSLRYYYAN,GKNNRPS,SSRDSSGFFVF,990 nM,3/3
EGDSLRYYYAN,GKNNRPS,SMRDSSGFVVF,210 nM,3/3
EGDSLRYYYAN,GKNNRPS,SSRDCSGFMYF,5.8 µM,3/3
EGDSLRYYYAN,SKNNRPS,SSRDSSGFSVF,1.3 µM,3/3
EGVSLRYYYAN,GKENRPS,SSRDSSGFEVF,2.2 µM,3/3
EGDSLRYYYAC,GKNNRPS,SSRDSEGFTVF,17 µM,2/3
EGDSLRYNYAN,GKNNRPS,SSRDSSGFHVF,2.3 nM,3/3
EGDSLRYYYAN,GKNNFPS,SSRDSIGFVVF,30 µM,1/3

Again, the first 2 entries without any signal:

CDR-L1,CDR-L2,CDR-L3,apparent Kd,replicates with signal
EGDSLRYYCAK,GKNNRPS,SSRDSSGFGVF,nd,0/3
EGDSLRYYYIN,GKNNRCS,SSRDSSGFHVF,nd,0/3

Nonspecific signal, from three strains lacking the peptide, appeared in 28% of pairings of library AAYL52, centred on 8.2 µM (5% of these signals below 800 nM); values are not corrected for it.

From the AlphaSeq antibody data of Engelhart et al. 2022 (doi:10.1038/s41597-022-01779-4), copy in the FLAb collection.